Key:
BEL7404 = format: cell-based; settings: 72 h
Protocol: (§1) The hepatoma cell line BEL7404 (purchased from The Chinese Academy of Sciences cell bank) was a cell line with high expression of YAP protein; HCCLM3 (purchased from The Chinese Academy of Sciences cell bank) was a cell line with low expression of YAP protein. The hepatoma cell lines (BEL7404 or HCCLM3) were inoculated into a 96-well plate at the concentration of 2000 cells/well, and incubated overnight in RPMI1640 containing 1% bovine serum at 37° C. The hepatoma cell lines were treated with polypeptides having different concentrations at 37° C. for 72 h.
(§2) Moreover, IC50 values of the cells in 1.1 were determined using CCK-8 kit.
(§3) The polypeptide represented by SEQ ID NO.:1 was further modified. The IC50 values of the polypeptides at a concentration of 1% in cell cultivating for 72 h were measured.

HCCLM3 = format: cell-based; settings: 72 h
Protocol: as §1, §2, §3

IC50 (BEL7404) [µM]	IC50 (HCCLM3) [µM]	Compound
211 ± 44.2	> 1000	CC[C@H](C)[C@H](N)C(=O)N[C@H](C(=O)N[C@@H](Cc1c[nH]cn1)C(=O)N[C@H](C(=O)N[C@@H](CCCNC(=N)N)C(=O)NCC(=O)N[C@@H](CC(=O)O)C(=O)N[C@@H](CO)C(=O)N[C@@H](CCC(=O)O)C(=O)N[C@H](C(=O)N[C@@H](CC(=O)O)C(=O)N[C@@H](CC(C)C)C(=O)N[C@@H](CCC(=O)O)C(=O)N[C@@H](C)C(=O)N[C@@H](CC(C)C)C(=O)N[C@@H](Cc1ccccc1)C(=O)O)[C@@H](C)O)C(C)C)C(C)C [compound 17]
816 ± 14.4	> 1000	CC(C)C[C@H](NC(=O)[C@H](C)NC(=O)CNC(=O)[C@H](C)NC(=O)[C@@H](N)[C@@H](C)O)C(=O)N[C@H](C(=O)N1CCC[C@H]1C(=O)N[C@@H](CCC(N)=O)C(=O)N[C@@H](Cc1c[nH]cn1)C(=O)N[C@H](C(=O)N[C@@H](CCCNC(=N)N)C(=O)N[C@@H](C)C(=O)N[C@@H](Cc1c[nH]cn1)C(=O)N[C@@H](CO)C(=O)N[C@@H](CO)C(=O)N1CCC[C@H]1C(=O)O)C(C)C)[C@@H](C)O [compound 18]
763 ± 31.5	> 1000	CC(C)[C@H](NC(=O)CNC(=O)[C@@H](NC(=O)[C@@H]1CCCN1)[C@@H](C)O)C(=O)N[C@H](C(=O)N[C@@H](CO)C(=O)NCC(=O)N1CCC[C@H]1C(=O)N[C@@H](C)C(=O)N[C@@H](C)C(=O)N[C@H](C(=O)N1CCC[C@H]1C(=O)N[C@H](C(=O)N[C@@H](C)C(=O)N[C@@H](CCC(N)=O)C(=O)N[C@@H](Cc1c[nH]cn1)C(=O)O)[C@@H](C)O)[C@@H](C)O)C(C)C [compound 19]

— patent US10441628B2, “High activity tumour inhibitor and preparation method and use thereof” (BAO KANG BIOMEDICAL HEALTHCARE INC, priority 2014, dated 2019)
